miR-21 reporter – miR-21 reporter, rising signal | HeLa miR-21 FLuc reporter, luciferase, 48 h | Potency, µM (top dose mostly 38.3 µM), inactives show at the highest dose reporter change, positive = more light | 340,000 tested, under 10 active | AID 2288; active = well fitted rising curve with a large enough effect; inconclusive = small, poorly fitted or top-dose-only effect; inactive = no such curve, though single readings can be large or run the other way;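 note: % of control where 0% means no effect; miR-21 action dims this reporter so a rising signal means less miR-21 action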
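HeLa cells stably expressing CMV-driven firefly luciferase with a downstream miR-21 binding sequence, endogenously expressing miR-21, were treated with titrations (up to about 40uM final) for 48 hours at 37 degree Celsius. Luciferase luminescence was read after lysis.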
Lamin A splicing – changes lamin A minigene splicing in HeLa cells; HeLa LMNA splicing GFP/RFP minigene ratio, 48 h; Potency, µM (series often up to 46.1 µM), inactives show at the highest dose ratio change, negative = inhibition, most hits filed as inhibitors; hit rate 0.01% among 200,000; AID 1487; active = well fitted inhibition curve with a large enough effect in the signal ratio, with a control signal flat, not every such curve was filed as active; inconclusive = small, poorly fitted or top-dose-only effect, or effect the other way, or a change in a side signal; the % refers to the signal ratio; also: potency is read from the fitted curve at half-maximal effect; % is scaled to controls: 0 for no effect and ±100 for the full control effect
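Read-out is the ratio of GFP to DsRed2 object intensity, acquired by 488 nm laser-scanning cytometry on HeLa lamin A-EGFP minigene reporter cells. Compound incubation 48 hrs at 37 °C in Opti-MEM with 2% FBS; DMSO 0.5% final.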
ALDH1A1 block – ALDH1A1 (human) enzyme inhibition. P00352. Purified ALDH1A1, NADH fluorescence, propionaldehyde substrate. Potency, µM (doses to about 75.3 µM), without a hit: top-dose activity, negative = inhibition, most hits filed as inhibitors. hit rate 7.3% among 220,000. AID 1030; active = well fitted inhibition curve with a large enough effect, not every such curve was filed as active; inconclusive = small, poorly fitted or top-dose-only effect, or another doubt; inactive = no such curve, though single readings can be large or run the other way;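 also: potency is read from the fitted curve at half-maximal effect; plate controls were no enzyme wells and a reference inhibitor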
G9a inh – inhibitors of human histone lysine methyltransferase G9a; Q96KQ7; G9a H3K9 monomethylation, AlphaScreen, 2 h; Potency, µM (series often up to 102 µM), inactives show at the top dose activity, negative = inhibition, most hits filed as inhibitors; hit rate 8.8% among 350,000; AID 504332; also: potency is read from the fitted curve at half-maximal effect; % is scaled to controls: 0 for no effect and ±100 for the full control effect; nearly all actives have a fitted effect of over 75% in size
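Chemiluminescent proximity detection of H3K9 monomethylation, read after 10 min bead incubation in the dark. Reaction: 20 nM G9a, 500 nM biotin-H3K9 peptide, 20 uM SAM cofactor, 2 h, room temperature, following 15 min enzyme-compound preincubation.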
Sfp inh – qHTS Assay for Inhibitors of Bacillus subtilis Sfp phosphopantetheinyl transferase (PPTase); Biochemical Sfp PPTase activity, qHTS; Potency, µM, for inactives: max response, negative = inhibition, actives largely listed as inhibitors; actives 3.5% (n = 310,000); AID 1490, 2009; active = well fitted inhibition curve with a large enough effect; inconclusive = small, poorly fitted or top-dose-only effect, or another doubt; inactive = no such curve, though single readings can be large or run the other way;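 note: the enzyme is Sfp with the accession as filed and its product quenches rhodamine fluorescence; potency is the fitted concentration of half-maximal effect; 0% = enzyme reaction without inhibitor and -100% = no enzyme wells; top concentration of the series not given in the record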
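Fluorescence-quenching assay: 15 nM Sfp-PPTase preincubated 15 min at room temperature with compound, then 5 uM rhodamine-CoA and 12.5 uM BHQ-2-labelled YbbR peptide added. Fluorescence (ex 525/em 598 nm) read at start and after 30 min; difference gives rate.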
JMJD2E inh – blocks human JMJD2E demethylase activity. B2RXH2. JMJD2E catalytic domain, FDH-coupled NADH fluorescence (FDH is formaldehyde dehydrogenase). Potency, µM (series often up to 57.1 µM), for the others: at the highest dose activity change, negative = inhibition, hits mostly inhibitors. hit rate 1.6% among 230,000; active = well fitted inhibition curve with a large enough effect, not every such curve was filed as active; inconclusive = small, poorly fitted or top-dose-only effect, or another doubt; inactive = no such curve, though single readings can be large or run the other way;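 also: potency is read from the fitted curve at half-maximal effect; 0% = wells with enzyme and -100% = buffer wells without enzyme; nearly all actives have a fitted effect of over 50% in size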
Numbers without * were called inactive; ? = inconclusive; / = no result given; [ ] = dose if it differs, or a comment. Compounds with a hit are over-represented: about 13% of the library has one in this group of screens. Unless noted, calls follow the shape of the dose curve; as a rule, active = well fitted curve in the direction sought with a large enough effect; inconclusive = small, poorly fitted or top-dose-only effect, or another doubt; inactive = no such curve, though single readings can be large; an effect the other way counts as inactive or inconclusive.

The line under a structure holds: miR-21 reporter	Lamin A splicing	ALDH1A1 block	G9a inh	Sfp inh	JMJD2E inh
> CN(CCc1ccccn1)C(=O)CC1C(=O)NCCN1Cc1ccc(-c2ccccc2)cc1 (stereo not drawn)
 : 2%	6%[46 µM]	?	56µM*	50µM*	-17%
> Cc1ccc(OCCN(C)C(=O)CC2C(=O)NCCN2CC(C)(C)C)cc1 (stereo not drawn)
 : -2%	16%[46 µM]	?	50µM*	-5%	?
> Cc1ccc(CN2CCNC(=O)C2CC(=O)N(C)C2CCCCC2)cc1 (stereo not drawn)
 : -6%	/	/	45µM*	6%	/
> CCOc1ccc(CN2CCNC(=O)C2CC(=O)N(C)C2CCCCC2)cc1 (stereo not drawn)
 : 0%	/	/	18%[59 µM]	16%	/
> CN(Cc1cnccn1)C(=O)CC1C(=O)NCCN1Cc1cccc(Oc2ccccc2)c1 (stereo not drawn)
 : -1%	?	-2%	50µM*	20%	-17%
> COC(=O)CN(C)C(=O)CC1C(=O)NCCN1CC(C)(C)C (stereo not drawn)
 : -2%	14%[46 µM]	-2%	-31%	13%	?
> Cc1ccc(CN2CCNC(=O)C2CC(=O)O)o1 (stereo not drawn)
 : 0%	-17%	-13%	50µM*	23%	-5%
> C=CCNC(=O)CC1C(=O)NCCN1Cc1ccc(-c2ccccc2)cc1 (stereo not drawn)
 : 0%	-8%[46 µM]	5%	56µM*	7%	-20%
> N#CCC(=O)Nc1ccc(C(=O)N2CCN(c3ccccn3)CC2)cc1
 : -4%	/	/	23%[59 µM]	27%	/
> COc1ccc(CN(CCN)C2CC(C)N(C)CC2C)cc1 (stereo not drawn)
 : -11%	/	/	/	1%	/

Random excerpt: two compounds from above.
The line under a structure holds: miR-21 reporter	Lamin A splicing	ALDH1A1 block	G9a inh	Sfp inh	JMJD2E inh
> Cc1ccc(OCCN(C)C(=O)CC2C(=O)NCCN2CC(C)(C)C)cc1 (stereo not drawn)
 : -2%	16%[46 µM]	?	50µM*	-5%	?
> COc1ccc(CN(CCN)C2CC(C)N(C)CC2C)cc1 (stereo not drawn)
 : -11%	/	/	/	1%	/

Results in G9a inh, for some of the entries so far:
molecule,G9a inh
CN(CCc1ccccn1)C(=O)CC1C(=O)NCCN1Cc1ccc(-c2ccccc2)cc1 (stereo not drawn),56µM*
Cc1ccc(OCCN(C)C(=O)CC2C(=O)NCCN2CC(C)(C)C)cc1 (stereo not drawn),50µM*
Cc1ccc(CN2CCNC(=O)C2CC(=O)N(C)C2CCCCC2)cc1 (stereo not drawn),45µM*

(further entries)
The line under a structure holds: miR-21 reporter	Lamin A splicing	ALDH1A1 block	G9a inh	Sfp inh	JMJD2E inh
> Cc1[nH]c(=S)[nH]c(=O)c1CCC1OCCO1
 : -12%	/	/	?	79µM*	-16%
> CCCCc1c(C)[nH]c(=S)[nH]c1=O
 : -3%	/	/	-8%	-5%	-4%
> Cc1[nH]c(=S)[nH]c(=O)c1CCCO
 : -1%	-15%[46 µM]	-3%	71µM*	?	?
> Cc1cc2cc(C=O)c(Cl)nc2cc1C
 : -5%	2%[0.0737 µM]	16%	19%[0.501 µM]	32µM*	4%
> Cc1ccc2cc(C=O)c(N(C)C)nc2c1
 : -5%	-4%	?	3%[59 µM]	6%	?
> Cc1ccccc1CSc1nnnn1-c1ccc(C(N)=O)cc1
 : 9%	/	/	25%	6%	/
> NC(=O)c1ccc(-n2nnnc2SCC(=O)c2ccc(O)c(O)c2)cc1
 : -7%	-2%[9.22 µM]	?	11µM*	?	0.71µM*
> COc1ccc(-n2nnnc2SCC(N)=O)cc1
 : -11%	15%	1%	-3%[59 µM]	19%	-6%
> COc1ccc(-n2nnnc2SCC(=O)c2ccc(O)c(O)c2)cc1
 : -15%	?	-14%	?	-10%	11µM*
> CSC1=N/C(=C\c2ccc(C)cc2)C(=O)S1
 : -5%	9%	?	55%[12.7 µM]	-7%	-5%

The line under a structure holds: miR-21 reporter	Lamin A splicing	ALDH1A1 block	G9a inh	Sfp inh	JMJD2E inh
> CCOC(=O)SC1=N/C(=C\c2ccc(N(C)C)cc2)C(=O)S1
 : -6%	-9%	5µM*	10µM*	-4%	-1%
> O=C(COC(=O)c1ccc(Cl)cc1O)NC(=O)C1CCCCC1
 : 0%	?	?	50µM*	21%	?
> c1ccc(CC2CCN(C3=Nc4cccc5cccc3c45)CC2)cc1
 : -7%	?	14µM*	?	?	-11%
> c1cc2c3c(cccc3c1)C(N1CCOCC1)=N2
 : -6%	/	/	/	0%	?
> COc1ccc(CNCC2COc3ccccc3O2)cc1 (stereo not drawn)
 : -19%	/	/	8.9µM*	?	/
> Oc1ccc(N2CCN(Cc3cc4c(cc3Br)OCCO4)CC2)cc1
 : -13%	/	/	1.8µM*	50µM*	/
> O=S(=O)(c1ccc(F)cc1)N1CCN(Cc2cc3c(cc2Br)OCCO3)CC1
 : /	/	/	17%[2.33 µM]	/	/
> CCOc1ccc(Cc2noc3c2C(=O)CCC3)cc1OCC
 : -10%	19%[9.22 µM]	6%	-7%	12%	1%
> CCOc1ccc(Cc2noc3c2C(=O)CC(C)(C)C3)cc1OCC
 : -2%	/	11µM*	36%	8%	8%
> Cc1cc(=O)[nH]c2nnc(SCc3ccc(Cl)cc3Cl)n12
 : -25%	25%[46 µM]	/	7%[59 µM]	/	/

Compound activity deposited in PubChem by National Center for Advancing Translational Sciences (NCATS).
